Values quoted from earlier work as cited in patent US20090275546A1, “Diagnostic tests and personalized treatment regimes for cancer stem cells” (Istituto Superiore di Sanita, priority 2008, published 2009).

The chains behind the UniProt entries cited, without tags or fusion partners. Where a name states a change or a piece, a line headed by the entry shows the natural chain unless it says otherwise.
UniProt P49841: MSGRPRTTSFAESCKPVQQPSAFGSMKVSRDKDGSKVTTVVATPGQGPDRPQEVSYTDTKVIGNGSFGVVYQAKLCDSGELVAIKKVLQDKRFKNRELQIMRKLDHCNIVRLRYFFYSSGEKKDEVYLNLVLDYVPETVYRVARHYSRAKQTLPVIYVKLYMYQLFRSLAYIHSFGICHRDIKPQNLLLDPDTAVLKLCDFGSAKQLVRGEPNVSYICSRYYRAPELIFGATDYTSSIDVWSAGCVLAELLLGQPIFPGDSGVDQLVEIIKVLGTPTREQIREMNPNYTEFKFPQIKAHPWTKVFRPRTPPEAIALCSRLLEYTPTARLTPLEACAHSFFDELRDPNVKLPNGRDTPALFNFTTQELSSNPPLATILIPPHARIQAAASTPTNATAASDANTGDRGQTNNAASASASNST

Target: GSK-3b (glycogen synthase kinase 3b) (Homo sapiens, UniProt P49841)
Details: cited from earlier work

Substance: Indirubin-3′-monoxime
- IC50: 22 nM
